# Data reported in publication doi:10.1101/2024.06.13.594677v1 (biorxiv, 2024).
# The chains behind the UniProt entries cited, without tags or fusion partners.
# UniProt P28223, whole entry: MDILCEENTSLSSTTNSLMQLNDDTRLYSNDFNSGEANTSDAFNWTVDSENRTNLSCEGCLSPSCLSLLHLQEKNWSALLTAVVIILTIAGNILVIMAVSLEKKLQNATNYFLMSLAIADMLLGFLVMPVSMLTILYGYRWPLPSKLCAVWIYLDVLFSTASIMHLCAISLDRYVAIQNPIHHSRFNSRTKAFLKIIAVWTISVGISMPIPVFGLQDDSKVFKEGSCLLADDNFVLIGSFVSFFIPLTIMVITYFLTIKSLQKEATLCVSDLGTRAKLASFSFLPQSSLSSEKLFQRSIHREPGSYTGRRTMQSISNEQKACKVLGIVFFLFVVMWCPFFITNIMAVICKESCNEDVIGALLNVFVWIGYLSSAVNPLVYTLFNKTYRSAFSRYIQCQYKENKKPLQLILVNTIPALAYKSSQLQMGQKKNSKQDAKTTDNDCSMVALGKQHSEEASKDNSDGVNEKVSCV
# Target: human 5-HT2A receptor (Homo sapiens, UniProt P28223)
# Design: species or system SH-SY5Y expressing human 5-HT2A
# Conditions: agonist
compound,measurement,value
CCN(CC)C(=O)[C@@H]1C=C2c3cccc4[nH]cc(c34)C[C@H]2N(C)C1 [LSD],β-arrestin2 Emax,0.44 ± 0.019
